{"source": "ChEMBL document CHEMBL6114976", "about": "“Structure-based design, synthesis and biological evaluation of a novel d-amino acid-containing peptide inhibitor by blocking the RAD51-BRCA2 interaction for the treatment of kidney cancer” (Eur J Med Chem, 2025)", "tested_on": "786-0", "assay": "cells", "settings": "Homo sapiens, 786-0, 72 h", "data": [{"smiles": "COc1ccc([C@H](C)NC(=O)[C@@H]2C[C@@H](O)CN2C(=O)CNC(=O)c2ccc3cc(F)ccc3n2)c(Cl)c1", "values": [{"measurement": "IC50", "result": 3.68, "unit": "µM"}]}]}
